This is an account of results in PubChem BioAssay AID1259397 (Fisher Drug Discovery Resource Center, 2018).

Sequences of proteins named here, by UniProt entry; tags and fusion partners are left off.
UniProt Q8C6L5, whole entry: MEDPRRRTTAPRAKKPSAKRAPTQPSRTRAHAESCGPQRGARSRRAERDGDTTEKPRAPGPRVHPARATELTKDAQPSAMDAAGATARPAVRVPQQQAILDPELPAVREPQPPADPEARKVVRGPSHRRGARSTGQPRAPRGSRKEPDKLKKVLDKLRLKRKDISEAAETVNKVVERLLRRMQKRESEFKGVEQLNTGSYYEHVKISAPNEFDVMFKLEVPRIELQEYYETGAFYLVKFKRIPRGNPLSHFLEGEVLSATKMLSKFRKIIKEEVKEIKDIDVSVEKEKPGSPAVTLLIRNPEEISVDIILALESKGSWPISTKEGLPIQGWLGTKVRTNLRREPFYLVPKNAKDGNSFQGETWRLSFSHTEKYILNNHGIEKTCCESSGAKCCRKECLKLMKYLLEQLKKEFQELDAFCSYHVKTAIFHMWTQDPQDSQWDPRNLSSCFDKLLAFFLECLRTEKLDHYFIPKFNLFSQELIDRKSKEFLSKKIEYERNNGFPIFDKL

The entries are a selection whose mix differs from that of the whole data set. Some structures show a salt or complex split into parts, the way the source records it. The source made the active and inactive calls.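 Rule for the calls: active = inhibition of cGAS enzyme activity at or above 60%; inactive = the rest.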

This test deals with Cyclic GMP-AMP synthase (Mus musculus) (UniProt Q8C6L5). Kind of test: inhibitors of Mus musculus cyclic GMP-AMP synthase, initial high-throughput assay, cell-free, RapidFire MS (AID 1259397).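 Note: enzyme stimulated by 45 bp dsDNA with ATP and GTP substrates; cGAMP share of summed cGAMP plus half ATP and half GTP signals.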 The note with it: recombinant mouse cGAS, cGAMP by RapidFire MS; at 12.5 µM; hits give high values.
In the case of `Cc1ccc(NP(C)(=O)Oc2ccc(C(C)C)cc2)cc1C` (stereo not drawn), the inhibition was inactive: -4.18%.

For the compound `Cc1ccc(NP(C)(=O)Oc2ccc(C(C)(C)C)cc2)cc1` (stereo not drawn), the inhibition is inactive: -5.71%.

For `COc1ccc(OP(C)(=O)Nc2ccc(Cl)cc2)cc1` (stereo not drawn), the inhibition is inactive: -4.29%.

As for `Nc1cc([N+](=O)[O-])cc([N+](=O)[O-])c1O`, the inhibition is inactive: 35.6%.

For the compound `CP(=O)(Nc1ccc(Br)cc1)Oc1ccc(Cl)cc1` (stereo not drawn), the inhibition was inactive: 4.15%.

Regarding `C/C1=C2N=C(/C=C3N=C(/C(C)=C4\[N-]C(C)(C5N=C1C(C)(CCC(=O)NCC(C)OP(=O)(O)OC1C(CO)OC(n6cnc7cc(C)c(C)cc76)C1O)C5CC(N)=O)C(C)(CC(N)=O)C4CCC(N)=O)C(C)(CC(N)=O)C\3CCC(N)=O)C(C)(C)C/2CCC(N)=O.[C-]#N.[Co+3]` (stereo not drawn), the inhibition is inactive: -4.03%.

`CN(C)CCS`: the inhibition was inactive: 1.7%.

As for `CP(=O)(O)OC(c1cccc(Cl)c1)C(F)(F)F` (stereo not drawn), the inhibition is inactive: -5.64%.

As to `CP(=O)(Oc1ccccc1)OC(c1ccccc1)C(F)(F)F` (stereo not drawn), the inhibition is inactive: -1.2%.

As for `COC(=O)NC(c1ccccc1)P(=O)(Cl)Cl` (stereo not drawn), the inhibition was inactive: -10.1%.

Turning to `CP(=O)(Nc1ccccc1Br)Oc1ccccc1` (stereo not drawn), the inhibition is inactive: -4.15%.

With `CP(=O)(O)OC(c1ccccc1)C(F)(F)F` (stereo not drawn), the inhibition was inactive: -5.56%.

Take `COc1ccc(OP(C)(=O)Nc2cccc(F)c2)cc1` (stereo not drawn): the inhibition is inactive: 0.779%.

In the case of `Cc1cc(C)cc(OP(C)(N)=O)c1` (stereo not drawn), the inhibition is inactive: -1.41%.

Turning to `CCN(C1=NCCCS1)P(O)(=S)CC` (stereo not drawn), the inhibition is inactive: 3.24%.

`CP(=O)(O)OC(c1cccc(C(F)(F)F)c1)C(F)(F)F` (stereo not drawn): the inhibition was inactive: -4.38%.

As for `Cc1cccc(C)c1OP(C)(N)=O` (stereo not drawn), the inhibition was inactive: -4.37%.

As to `CC(C)(C)c1ccc(OP(C)(N)=O)cc1` (stereo not drawn), the inhibition is inactive: -3.74%.

On to `CCOP(C)(=S)SCN(CC(=O)O)C(=O)OC` (stereo not drawn), for which the inhibition was inactive: -8.96%.

Take `CP(=O)(Nc1ccc(F)cc1)Oc1ccc(Cl)cc1` (stereo not drawn): the inhibition was inactive: 1.92%.

As for `CP(=O)(Nc1ccc(Cl)cc1Cl)Oc1ccccc1` (stereo not drawn), the inhibition was inactive: -6.98%.

Turning to `COc1cccc(C(OP(C)(=O)O)C(F)(F)F)c1` (stereo not drawn), the inhibition is inactive: -16.4%.

Regarding `CC(C)(C)c1ccc(OP(C)(=O)O)cc1`, the inhibition is inactive: 1.17%.

For the compound `OCCSCCO`, the inhibition is inactive: -1.5%.

With `CP(N)(=O)Oc1ccccc1F` (stereo not drawn), the inhibition was inactive: 3.52%.

As to `Cc1cc(C)cc(OP(C)(=O)Nc2cc(Cl)ccc2C)c1` (stereo not drawn), the inhibition was inactive: 5.31%.

For `O=[N+]([O-])C1([N+](=O)[O-])COCOC1`, the inhibition is inactive: -13.5%.

In the case of `CN1CC(=O)N(C)P1(C)=S` (stereo not drawn), the inhibition is inactive: -5.58%.
